Measured values reported in PubChem BioAssay AID720709 (National Center for Advancing Translational Sciences (NCATS), 2013).
This is a selection; strong and weak results do not stand in their true shares. Records with an inconclusive call do not appear. The source made the active and inactive calls. Calls follow the shape of the dose curve; as a rule, active = well fitted inhibition curve with a large enough effect; inconclusive = small, poorly fitted or top-dose-only effect; inactive = no such curve, though single readings can be large or run the other way.

The chains behind the UniProt entries cited, without tags or fusion partners.
UniProt O95398, whole entry: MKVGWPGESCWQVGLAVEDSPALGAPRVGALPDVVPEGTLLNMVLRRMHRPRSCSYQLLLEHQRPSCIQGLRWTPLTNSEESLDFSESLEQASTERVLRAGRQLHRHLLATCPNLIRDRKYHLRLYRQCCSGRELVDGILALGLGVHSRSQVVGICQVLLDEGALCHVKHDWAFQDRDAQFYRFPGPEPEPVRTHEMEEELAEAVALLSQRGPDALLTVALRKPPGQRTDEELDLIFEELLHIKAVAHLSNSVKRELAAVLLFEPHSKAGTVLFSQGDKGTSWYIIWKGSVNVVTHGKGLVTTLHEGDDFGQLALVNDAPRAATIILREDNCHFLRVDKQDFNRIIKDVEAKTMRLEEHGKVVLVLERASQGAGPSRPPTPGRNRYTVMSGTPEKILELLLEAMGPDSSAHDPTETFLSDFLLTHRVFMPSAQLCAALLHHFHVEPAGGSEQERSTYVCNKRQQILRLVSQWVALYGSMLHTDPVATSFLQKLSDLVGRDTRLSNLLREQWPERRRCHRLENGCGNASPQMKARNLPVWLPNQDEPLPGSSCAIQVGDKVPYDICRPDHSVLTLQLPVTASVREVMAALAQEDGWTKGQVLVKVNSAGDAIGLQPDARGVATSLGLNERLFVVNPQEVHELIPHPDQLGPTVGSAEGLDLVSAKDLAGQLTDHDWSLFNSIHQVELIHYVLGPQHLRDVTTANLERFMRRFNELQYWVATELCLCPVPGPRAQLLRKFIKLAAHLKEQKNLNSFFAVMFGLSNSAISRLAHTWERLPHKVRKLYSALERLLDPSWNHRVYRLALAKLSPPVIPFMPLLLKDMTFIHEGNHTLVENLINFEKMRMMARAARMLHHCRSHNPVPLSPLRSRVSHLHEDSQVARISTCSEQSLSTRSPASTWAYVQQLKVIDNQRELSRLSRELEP

Molecular target: Rap guanine nucleotide exchange factor 3 (Homo sapiens) (UniProt O95398)
Assay: qHTS for Antagonist of cAMP-regulated guanine nucleotide exchange factor 3 (EPAC1): primary screen;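 also: plate controls were vehicle for no effect and positive control for full effect; nearly all actives have a fitted effect of over 50% in size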
Conditions: EPAC1 GEF assay, Rap1b-BODIPY-GDP exchange fluorescence; at 115 µM (top of the series)
Excerpt: In multi-cellular eukaryotic organisms, the effects of cAMP are transduced by two ubiquitously-expressed intracellular cAMP receptors, the classic protein kinase A/cAMP-dependent protein kinase (PKA/cAPK) and the more recently discovered exchange protein directly activated by cAMP/cAMP-regulated guanine nucleotide exchange factor (EPAC/cAMP-GEF). Both PKA and EPAC are ubiquitously expressed in all tissues, and an increase in intracellular cAMP levels will lead to the activation of both PKA and EPAC. […] This qHTS will be used to screen the Molecular Libraries Small Molecule Repository (MLSMR) as a concentration-titration series using the NCGC unique quantitative screening (qHTS) platform to find inhibitors for EPAC1. […] Inhibitors are identified by monitoring the change in fluorescence signal as the exchanged free BODIPY-GDP has a reduced fluorescence compared to Rap1-bound BODIPY-GDP. […]
Briefly, three uL of reagents (100 nM EPAC1, 250 nM RAP1B-BODIPY-GDP, 50 uM GDP) were dispensed into a 1536-well Greiner black solid-bottom medium binding assay plate. […] The assay plates were read at 5 minute intervals for 30 minutes in the ViewLux plate reader using 480nm excitation and 540nm emission filters. […]

| Compound | activity change, negative = inhibition |
| --- | --- |
| Cc1cc(C)cc(OP(C)(=O)Nc2ccccn2)c1 (stereo unspecified) | inactive: 5.01% |
